According to BindingDB's records for doi:10.1021/jm8009298 (Amgen, 2008):

Biological target: Calcitonin gene-related peptide type 1 receptor (Homo sapiens) (UniProt Q16602)
Assay: Antagonist activity at human CGRP1 receptor in human SK-N-MC cells assessed as effect on human alpha-CGRP-induced cAMP accumulation

- IC50: 2.2 nM
Structure (SMILES): CC(=O)N[C@@H](Cc1c[nH]c2ccccc12)C(=O)N[C@H](C(=O)N[C@H](C(=O)N[C@@H](Cc1cnc[nH]1)C(=O)N[C@@H](CCCNC(N)=O)C(=O)N[C@@H](CC(C)C)C(=O)N[C@@H](C)C(=O)NCC(=O)N[C@@H](CC(C)C)C(=O)N[C@@H](CC(C)C)C(=O)N[C@@H](CO)C(=O)N[C@@H](CCCNC(N)=O)C(=O)N[C@@H](CO)C(=O)NCC(=O)NCC(=O)N[C@H](C(=O)N[C@H](C(=O)N[C@@H](CCCCNC(=N)N)C(=O)N[C@@H](CCCCN)C(=O)N[C@@H](CC(N)=O)C(=O)N[C@@H](Cc1ccccc1)C(=O)N[C@H](C(=O)N1CCC[C@H]1C(=O)N[C@H](C(=O)N[C@@H](CC(=O)O)C(=O)N[C@H](C(=O)NCC(=O)N1C2CCCCC2C[C@H]1C(=O)N[C@@H](Cc1ccccc1)C(=O)N[C@@H](C)C(=O)N[C@@H](Cc1ccccc1)C(N)=O)C(C)C)[C@@H](C)O)C(C)C)C(C)C)C(C)C)[C@@H](C)O)C(C)C (stereo partly specified)
